Amino acid sequences for entries named in this document (tags omitted). A change or cut given only in a name is not applied to a line headed by its entry.
UniProt Q62645, whole entry: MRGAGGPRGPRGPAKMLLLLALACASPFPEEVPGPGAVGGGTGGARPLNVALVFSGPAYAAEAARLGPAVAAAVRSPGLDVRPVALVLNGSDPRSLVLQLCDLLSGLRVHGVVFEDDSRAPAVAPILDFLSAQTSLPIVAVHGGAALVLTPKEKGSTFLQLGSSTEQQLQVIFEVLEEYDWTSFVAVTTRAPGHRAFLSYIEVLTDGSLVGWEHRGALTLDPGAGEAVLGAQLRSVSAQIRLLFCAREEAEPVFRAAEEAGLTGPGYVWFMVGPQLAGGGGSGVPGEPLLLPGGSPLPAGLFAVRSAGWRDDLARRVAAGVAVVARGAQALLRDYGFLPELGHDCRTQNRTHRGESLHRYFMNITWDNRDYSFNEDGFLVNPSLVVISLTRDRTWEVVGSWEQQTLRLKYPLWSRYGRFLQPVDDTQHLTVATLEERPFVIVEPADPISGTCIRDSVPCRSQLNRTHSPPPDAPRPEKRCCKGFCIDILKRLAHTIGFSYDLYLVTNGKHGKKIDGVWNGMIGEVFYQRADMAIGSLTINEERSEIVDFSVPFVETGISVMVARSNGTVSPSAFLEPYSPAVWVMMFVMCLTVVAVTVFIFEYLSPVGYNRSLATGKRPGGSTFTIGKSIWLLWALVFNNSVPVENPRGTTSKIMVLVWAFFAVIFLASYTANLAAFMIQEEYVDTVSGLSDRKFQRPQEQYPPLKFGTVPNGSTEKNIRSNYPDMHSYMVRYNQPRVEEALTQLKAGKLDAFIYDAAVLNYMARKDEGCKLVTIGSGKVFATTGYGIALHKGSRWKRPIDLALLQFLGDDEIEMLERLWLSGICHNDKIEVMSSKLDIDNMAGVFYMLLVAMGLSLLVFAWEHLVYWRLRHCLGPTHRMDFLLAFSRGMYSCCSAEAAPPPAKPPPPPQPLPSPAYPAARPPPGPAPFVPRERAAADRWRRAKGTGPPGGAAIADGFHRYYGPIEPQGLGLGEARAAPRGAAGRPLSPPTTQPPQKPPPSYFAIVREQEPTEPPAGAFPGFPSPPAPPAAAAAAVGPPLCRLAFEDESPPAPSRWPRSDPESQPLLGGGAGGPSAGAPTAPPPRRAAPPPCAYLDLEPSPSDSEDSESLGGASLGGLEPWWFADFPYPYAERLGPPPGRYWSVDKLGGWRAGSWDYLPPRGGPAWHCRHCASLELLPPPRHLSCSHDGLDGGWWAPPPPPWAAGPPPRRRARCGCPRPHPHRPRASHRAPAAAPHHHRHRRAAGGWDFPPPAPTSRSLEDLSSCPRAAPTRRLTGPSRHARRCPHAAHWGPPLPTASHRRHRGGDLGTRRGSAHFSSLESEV
UniProt P19490: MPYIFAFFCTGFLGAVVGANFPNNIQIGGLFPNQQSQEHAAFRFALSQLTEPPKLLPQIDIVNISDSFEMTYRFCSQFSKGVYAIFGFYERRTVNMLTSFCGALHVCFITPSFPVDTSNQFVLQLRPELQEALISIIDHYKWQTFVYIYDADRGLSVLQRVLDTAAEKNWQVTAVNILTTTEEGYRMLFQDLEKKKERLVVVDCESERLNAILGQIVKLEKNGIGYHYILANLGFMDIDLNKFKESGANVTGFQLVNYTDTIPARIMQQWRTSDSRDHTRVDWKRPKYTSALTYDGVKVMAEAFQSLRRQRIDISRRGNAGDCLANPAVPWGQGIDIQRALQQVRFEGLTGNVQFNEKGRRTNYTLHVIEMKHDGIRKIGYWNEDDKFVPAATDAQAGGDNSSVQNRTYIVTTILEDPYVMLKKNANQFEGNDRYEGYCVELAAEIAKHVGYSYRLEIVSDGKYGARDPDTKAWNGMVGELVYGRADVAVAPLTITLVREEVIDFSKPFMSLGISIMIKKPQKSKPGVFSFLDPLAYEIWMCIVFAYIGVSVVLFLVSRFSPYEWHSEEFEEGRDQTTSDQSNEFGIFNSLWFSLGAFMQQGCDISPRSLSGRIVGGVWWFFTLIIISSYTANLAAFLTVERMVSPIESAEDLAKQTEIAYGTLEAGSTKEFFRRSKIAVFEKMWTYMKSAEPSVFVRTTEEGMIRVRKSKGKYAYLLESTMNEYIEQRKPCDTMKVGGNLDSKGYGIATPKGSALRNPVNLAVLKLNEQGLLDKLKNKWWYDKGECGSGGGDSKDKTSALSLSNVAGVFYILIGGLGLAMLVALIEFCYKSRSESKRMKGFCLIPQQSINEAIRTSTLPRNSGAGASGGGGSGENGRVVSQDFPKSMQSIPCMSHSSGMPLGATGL

In ChEMBL document CHEMBL1212913, “Quinazolin-4-one derivatives: A novel class of noncompetitive NR2C/D subunit-selective N-methyl-D-aspartate receptor antagonists” (J Med Chem, 2010):

Columns and labels:
Rattus norvegicus [1] = species: Rattus norvegicus; assay: Selectivity ratio of IC50 for rat recombinant NR1-NR2A receptor to IC50 for rat recombinant NR1-NR2D receptor
Procedure, shortened: (§1)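 Ratio of fitted IC50 values, either NR2A/NR2D or GluR1/NR2D, from two-electrode voltage-clamp Hill fits in oocytes. Where noted, calculated from IC50 values rounded to the nearest μM.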

Rattus norvegicus [2] = species: Rattus norvegicus; assay: Selectivity ratio of IC50 for rat recombinant GLuR1 to IC50 for rat recombinant NR1-NR2D receptor; procedure, shortened: as §1
[3] = molecular target: Ionotropic glutamate receptor NMDA 1/2D (Rattus norvegicus, UniProt P35439+Q62645); assay: Antagonist activity at rat recombinant NR1-NR2D receptor expressed in Xenopus oocytes at holding potential of -40mV by two-electrode voltage-clamp electrophysiology; assay type: functional, cell-based, Oocyte
Procedure, shortened: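 Oocytes expressing rat NR1-1a with NR2A, NR2B, NR2C or NR2D, clamped at −40 mV in Ba2+/HEPES recording solution pH 7.4, 23°C. Current evoked by 100 μM glutamate plus 30 μM glycine. Final DMSO 0.05-0.5%, 5-7 inhibitor concentrations, ≥4 oocytes each. IC50 from Hill fit of normalized mean composite data. […] Some NR2A oocytes given BAPTA-AM or K-BAPTA.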

Glutamate receptor 1 = Glutamate receptor 1 (Rattus norvegicus, UniProt P19490); assay: Antagonist activity at rat recombinant GLuR1 expressed in Xenopus oocytes assessed as inhibition of glutamate-induced current by two-electrode voltage-clamp electrophysiology; assay type: functional, cell-based, Oocyte
Procedure, shortened: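 Two-electrode voltage clamp at −40 mV on Xenopus oocytes expressing rat GluR1, perfused with 90 NaCl, 1.0 KCl, 0.5 BaCl2, 0.005 EDTA, 10 HEPES (mM), pH 7.4, 23°C; activated by 100 μM glutamate. From 20 mM DMSO stocks, 5-7 concentrations, ≥4 oocytes each. Hill fit to mean composite curves normalized to control, minimum usually fixed at 0. Response >75% at 100 μM reported as >300 μM.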

Compound | Ratio IC50 (Rattus norvegicus [1]) | Ratio IC50 (Rattus norvegicus [2]) | IC50 [3] | IC50 (Glutamate receptor 1)
O=C(O)c1cccc(-n2c(/C=C/c3cccc([N+](=O)[O-])c3)nc3ccccc3c2=O)c1 | 7 | 2 |  | 
COc1ccc(-n2c(/C=C/c3cccc([N+](=O)[O-])c3)nc3ccccc3c2=O)cc1 | 2 | 1 |  | 
COc1ccc(-n2c(/C=C/c3ccc([N+](=O)[O-])cc3)nc3ccccc3c2=O)cc1 | 1 | 1 |  | 
O=C(O)c1ccc(-n2c(/C=C/c3ccc([N+](=O)[O-])cc3)nc3ccccc3c2=O)cc1 | 4 |  |  | 
Cc1ccc2nc(CCc3ccccc3)n(-c3ccc(C(=O)O)cc3)c(=O)c2c1 | 1 | 1 |  | 
O=C(O)c1ccccc1-n1c(/C=C/c2ccc([N+](=O)[O-])cc2)nc2ccccc2c1=O | 1 | 1 |  | 
O=C(O)c1cccc(-n2c(/C=C/c3ccccc3[N+](=O)[O-])nc3ccccc3c2=O)c1 | 2 | 1 |  | 
COc1ccc(-n2c(/C=C/c3ccccc3[N+](=O)[O-])nc3ccccc3c2=O)cc1 | 2 | 2 |  | 
O=C(O)c1ccccc1-n1c(/C=C/c2cccc([N+](=O)[O-])c2)nc2ccccc2c1=O | 2 | 2 |  | 
O=C(O)c1ccc(-n2c(/C=C/c3ccccc3[N+](=O)[O-])nc3ccccc3c2=O)cc1 |  |  | 6 µM | 6 µM
COc1ccccc1-n1c(/C=C/c2ccccc2[N+](=O)[O-])nc2ccccc2c1=O | 1 | 3 |  | 
